{"sequences": {"note": "By UniProt entry, the sequences of proteins in these tests, tags left out.", "UniProt P28845, whole entry": "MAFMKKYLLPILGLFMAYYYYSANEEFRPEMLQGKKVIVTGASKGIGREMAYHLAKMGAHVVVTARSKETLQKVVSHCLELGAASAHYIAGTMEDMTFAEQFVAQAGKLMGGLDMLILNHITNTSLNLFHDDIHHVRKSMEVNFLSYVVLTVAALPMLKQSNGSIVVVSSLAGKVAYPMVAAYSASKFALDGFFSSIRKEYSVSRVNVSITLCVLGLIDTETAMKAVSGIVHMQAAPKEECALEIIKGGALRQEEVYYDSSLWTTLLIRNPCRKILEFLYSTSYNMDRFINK"}, "source": "patent US8153631B2", "about": "“Triazole compounds and uses related thereto” (Amgen Inc., priority 2003, dated 2012)", "biological_target": "human HSD1 (recombinant HSD1) (Homo sapiens, UniProt P28845)", "assay": "In vitro HSD1 activity inhibitory action, SPA of cortisone to cortisol conversion", "conditions": "read-out: hHSD1 IC50, recombinant human HSD1 0.1 μg/ml, 500 μM NADPH, 16 nM 3H cortisone, room temperature 90 min", "protocol": "In Vitro HSD1 (Hydroxysteroid Dehydrogenase 1) Activity Inhibitory Action\nThe HSD1 inhibitory activity was examined by quantitative determination by an SPA (scintillation proximity assay) system of the suppressive action on the conversion from cortisone to cortisol using human HSD1 (hereinafter recombinant HSD1) expressed using a baculo-virus system as an enzyme source. For the reaction, a reagent was added to a 96 well plate (96 well Opti-plates™-96 (Packard)) to the following final concentration and a volume of 100 μl was reacted at room temperature for 90 min. The reaction solution used was 0.1 μg/ml recombinant HSD1, 500 μM NADPH, 16 nM ^3H cortisone (Amersham Biosciences, 1.78 Tbq/mol) dissolved in 0.1% BSA (Sigma)-containing PBS and the test drug was 2 μl of a compound solution (dissolved in DMSO). […] After the completion of the reaction, the plate was incubated overnight at room temperature and the radioactivity was measured by Topcount (Packard). […] The inhibition (%) of the test drug was calculated by ((value of control−value of test drug)/(value of control−value of positive control))×100 (%). The IC50 value was analyzed using a computer-based curve fitting soft.", "data": [{"smiles": "CC(=O)OC1CCN(c2ccc(-c3nnc(C4(c5ccccc5)CC4)n3C)c(Cl)c2)CC1", "values": [{"measurement": "IC50", "value": "< 10", "unit": "nM"}]}]}
